Data: patent US20070043122A1, “Use of 2,2,3,3, tetramethylcyclopropane carboxylic acid derivatives for treating psychiatric disorders” (YISSUM RESEARCH DEVELOPMENT CO. OF THE HEBREW UNIVERSITY OF …, priority 2003, published 2007)

Assays:
human brain MIP synthase = target: T1, human brain MIP synthase (Homo sapiens, UniProt Q9NPH2); assay: Human brain MIP synthase activity in postmortem prefrontal cortex homogenate; type: biochemical
T1 construct: supernatant fraction obtained after sonication; from tissue; host or cells: postmortem human prefrontal cortex, 9,000 x g supernatant of sonicated homogenate
T1 sequence (Q9NPH2 1-558): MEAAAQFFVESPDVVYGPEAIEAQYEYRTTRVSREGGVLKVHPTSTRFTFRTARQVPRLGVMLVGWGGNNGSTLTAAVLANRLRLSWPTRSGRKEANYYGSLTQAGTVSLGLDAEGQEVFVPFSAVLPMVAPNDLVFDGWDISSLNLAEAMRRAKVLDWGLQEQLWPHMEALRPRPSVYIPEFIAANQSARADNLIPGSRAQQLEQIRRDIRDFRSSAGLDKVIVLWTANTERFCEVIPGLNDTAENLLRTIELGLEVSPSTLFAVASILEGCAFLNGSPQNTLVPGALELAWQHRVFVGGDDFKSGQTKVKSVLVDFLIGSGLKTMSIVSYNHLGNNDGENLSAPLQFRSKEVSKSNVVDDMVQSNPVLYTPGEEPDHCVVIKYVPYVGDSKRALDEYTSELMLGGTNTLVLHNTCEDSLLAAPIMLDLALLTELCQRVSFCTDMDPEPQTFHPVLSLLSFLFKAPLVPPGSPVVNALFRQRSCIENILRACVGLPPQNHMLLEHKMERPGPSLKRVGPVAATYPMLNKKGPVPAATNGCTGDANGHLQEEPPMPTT
Description: Human brain MIP synthase activity. Five μl of the supernatant fraction obtained after sonication (Ultrasonic Processor, Newtown, Conn., 15 sec at 0.1 output watts at 4° C.) and centrifugation for 20 min at 9,000×g at 4° C. of postmortem human prefrontal cortex (1 mg wet weight in 0.5 ml of 50 mM Tris HCl, pH 7.4) were added to 20 μl reaction mixture containing 4 mM D-glucose-6-phosphate, 1.25 μCi D-glucose-6-phosphate [^14C], 1.6 mM NAD^+, 0.45 mM KCl, 5.4 mM MgCl2 and 0.9 mM Tris HCl, pH 7.6, with or without 5 mU IMPase (Sigma, St. Louis). Incubation with or without various drugs concentrations (table 2 and table 3) was carried out for 3 hours (within the linear range) at 37° C. The reaction was stopped by adding 50 μl cold double distilled water (ddH20). Seventy out of the 80 μl were added to test tubes containing 1.25 g strong basic anion resin (Amberjet 4200, Rohm and Haas, Philadelphia) in 1 ml ddH2O. The mixtures were vortexed for 10 min, then centrifugated for 10 min at 10,000×g at room temperature, and 200 μl supernatant taken for ^14C counting (Liquid Scintillation Counter, Kontron, Basel). The enzymatic activity was calculated by subtracting values without IMPase from the measures with IMPase. The measurements were carried out in triplicate.
Table 2 details the drugs and their concentrations compared with their therapeutic concentrations, studied for possible inhibition of human brain MIP synthase activity. Each drug was tested twice, each experiment in triplicate.

[1] = in vivo; cited from earlier work

| SMILES | Km of MIP synthase for glucose-6-phosphate in the presence of VPA (human brain MIP synthase; 0.525 mM VPA, without VPA 0.625 mM) | Vmax of MIP synthase in the presence of VPA (human brain MIP synthase; 0.525 mM VPA, without VPA 0.02) [nmoles/min×mg protein] | mode of inhibition of MIP synthase (human brain MIP synthase; glucose-6-phosphate 0.48-2.48 mM, 0.525 mM VPA, Lineweaver-Burk plot) | drug levels in brain relative to blood levels [1] | half-life time in mice relative to humans [1] | inhibited MIP synthase activity (which of the other psychotropic drugs) (human brain MIP synthase; at concentrations 1.5 times greater than their upper therapeutic range (concentrations in Table 2)) |
| --- | --- | --- | --- | --- | --- | --- |
| CCCC(CCC)C(=O)O [VPA, valproic acid] | does not change | 0.006 | noncompetitive | about 20% | ten times higher | – |
| Nc1nnc(-c2cccc(Cl)c2Cl)c(N)n1 [lamotrigine] | – | – | – | – | – | None |
